Assay results published in publication PMC10566475, “A cell-active cyclic peptide targeting the Nrf2/Keap1 protein–protein interaction” (Chemical Science, 2023).

Amino acid sequences for entries named in this document (tags omitted). Residues count along the entry.
UniProt Q14145, 321-609: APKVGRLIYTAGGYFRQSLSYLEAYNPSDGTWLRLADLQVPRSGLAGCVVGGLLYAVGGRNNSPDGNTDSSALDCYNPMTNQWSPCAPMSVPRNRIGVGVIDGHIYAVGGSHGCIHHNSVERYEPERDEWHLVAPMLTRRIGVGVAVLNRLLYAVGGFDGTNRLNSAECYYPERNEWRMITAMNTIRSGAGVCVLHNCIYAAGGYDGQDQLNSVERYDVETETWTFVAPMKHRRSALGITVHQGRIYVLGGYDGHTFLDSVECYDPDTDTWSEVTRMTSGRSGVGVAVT
UniProt Q14145, whole entry: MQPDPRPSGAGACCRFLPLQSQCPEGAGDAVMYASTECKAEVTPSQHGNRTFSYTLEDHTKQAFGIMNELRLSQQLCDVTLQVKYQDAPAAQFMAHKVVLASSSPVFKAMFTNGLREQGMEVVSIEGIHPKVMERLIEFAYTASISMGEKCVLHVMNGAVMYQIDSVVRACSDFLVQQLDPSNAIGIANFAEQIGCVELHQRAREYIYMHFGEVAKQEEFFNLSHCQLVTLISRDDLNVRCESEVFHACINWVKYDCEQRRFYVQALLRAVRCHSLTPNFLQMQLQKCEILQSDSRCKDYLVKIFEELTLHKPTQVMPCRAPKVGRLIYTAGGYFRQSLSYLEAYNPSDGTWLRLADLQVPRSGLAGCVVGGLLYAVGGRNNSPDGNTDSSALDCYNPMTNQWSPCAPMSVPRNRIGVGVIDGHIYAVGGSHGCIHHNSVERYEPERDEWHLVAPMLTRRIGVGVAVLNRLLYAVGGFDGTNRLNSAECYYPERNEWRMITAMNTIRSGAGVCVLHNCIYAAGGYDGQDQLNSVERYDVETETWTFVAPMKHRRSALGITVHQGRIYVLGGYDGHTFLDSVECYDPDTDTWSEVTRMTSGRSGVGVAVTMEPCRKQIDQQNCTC

Key:
[1] = molecular target: T1, human Keap1 Kelch domain (A321-T609) (Homo sapiens, UniProt Q14145); test: Surface plasmon resonance (SPR) direct binding assay, immobilised Keap1 Kelch domain; conditions: Table 2
T1 construct: human Keap1 Kelch domain (A321-T609) fused with N-terminal 6x His-tag; 6xHis (N); made in house
From the text: (§1) We based the design of our Nrf2-like cyclic peptides around the amino acid sequence of the ETGE motif (namely 12-mer ^73QLQLDEETGEF^84L) and SAR studies reported in the literature.[9,10,12,14] The […] motif is known to adopt a beta-turn conformation upon binding to Keap1. Residues Q73-Q75 and L85 stabilise the bound conformation, L76-D77 and E79-G81 bind deep into the pocket with E79 and E82 forming electrostatic interactions with Keap1 and D77 and T80 stabilising the beta-turn via H-bonds with E78 not contributing to the binding. In particular, our peptides aim to retain the beta-turn conformation and featured the E78P mutation which has been reported to improve the binding affinity.[9] […] The ability of the cyclic peptides to bind to the Kelch domain of Keap1 was evaluated using surface plasma resonance (SPR), where the Kelch domain is immobilised onto a SPR sensor chip. Additionally, we assessed the ability of the peptides to inhibit the PPI between Nrf2 and the Kelch domain of Keap1 using a time-resolved FRET (TR-FRET) assay. Here, the IC50 for inhibition of the interaction between the human Keap1 Kelch domain and an Nrf2-ETGE peptide is measured.
(§2) Surface Plasmon Resonance (SPR)
(§3) Peptide affinities to the Kelch domain of Keap1 is determined in a direct binding assay using 8K surface plasmon resonance (SPR) biosensor (Cytiva) at 20°C. Immobilization of Keap1 Kelch domain on a CM5 sensor chip (Cytiva) is performed using standard amine coupling procedure. The surface is washed with 10mM NaOH, 1M NaCl before activated with EDC/NHS (Cytiva), followed by immobilization of human Keap1 Kelch domain (A321-T609) fused with N-terminal 6x His-tag7 (in 10 mM MES, pH=6.4).
(§4) Finally, the surface is deactivated by Ethanolamine. Immobilization levels are typically 5000-6000 RU.
(§5) The reference spot is treated as described, omitting the injection of Keap1. Compound concentration series are injected over the immobilized protein in increasing concentrations using single cycle kinetics (SCK) in running buffer (10 mM HEPES, 150 mM NaCl, 0.05% Tween20, 1 mM TCEP, pH 7.4). A 1:1 Langmuir interaction model is fitted to the experimental traces, enabling determination of kon, koff and […]
(§6) In the time-resolved Förster resonance energy transfer (TR-FRET) assay8 the IC50 of inhibitors which are able to inhibit the interaction between the Keap1-Kelch domain and a Nrf2 derived ETGE peptide are determined. The TR-FRET is measured between a Tb-labelled mAb (Anti—6-His, Tb cryptate Gold, CisBio 61H12TLB) that binds to Keap 1 Kelch domain and d2-labelled SA-biotin-peptide.
(§7) The assay was performed in 384-well white low-volume, medium binding plates (Greiner Bio One, Austria) in 20 mM HEPES pH 7.5, 150 mM NaCl, 2 mM GSH (Sigma-Aldrich, USA),1mM EDTA (Sigma-Aldrich, USA), and 0.01% Pluronic F127 (MilliporeSigma, USA), with a final reaction volume of 10 µL.
(§8) To determine the ability of synthesized peptide to inhibit PPI between the Keap1 Kelch domain and Nrf2, 1nM purified human Keap1 Kelch domain (A321-T609) fused with N-terminal 6x His-tag, 5 nM biotinylated Nrf2 peptide ([…], Genescript, USA), d2-labeled streptavidin (Revvity, USA), and […] anti-His monoclonal antibody tagged with terbium cryptate (Revvity, USA), were incubated in the presence of varying concentrations of investigated peptides for 3 h at room […]
(§9) 7 Li X, Zhang D, Hannink M, Beamer LJ. Crystallization and initial crystallographic analysis of the Kelch domain from human Keap1. Acta
(§10) 8 S. Lee, D. Ali Abed, L. J. Beamer, L. Hu, Development of a Homogeneous Time-Resolved Fluorescence Resonance Energy Transfer (TR-
FRET) Assay for the Inhibition of Keap1–Nrf2 Protein–Protein Interaction, SLAS Discovery, 26, 1, 2021, Pages 100-112, ISSN 2472-

[2] = molecular target: T2, interaction between the human Keap1 Kelch domain and an Nrf2-ETGE peptide (Homo sapiens, UniProt Q14145); test: Keap1-Nrf2 TR-FRET (HTRF) assay; assay type: binding; conditions: Table 2; IC50, minimum of three repeats; read-out: TR-FRET
T2 construct: 1nM purified human Keap1 Kelch domain (A321-T609) fused with N-terminal 6x His-tag; made in house
From the text: as §1, §2, §3, §4, §5, §6, §7, §8, §9, §10
FRET) Assay for the Inhibition of Keap1–Nrf2 Protein–Protein Interaction, SLAS Discovery, 26, 1, 2021, Pages 100-112, ISSN 2472- […]
Following the incubation, the PHERAstar FSX […] microplate reader was used to measure the acceptor and donor emissions at 665 nm and 620 nm, respectively. The acceptor/donor ratio was used to calculate relative energy transfer. […]

[3] = molecular target: NQO1 gene expression in BEAS-2B cells (Homo sapiens); test: BEAS-2B NQO1 assay (qPCR of NQO1 mRNA); assay type: cell-based; conditions: EC50 of NQO1 mRNA upregulation, 24 h, medium without FBS, read-out: BEAS2b
From the text: The effect of peptides on Nrf2-dependent gene expression was investigated in BEAS-2B cells, where we determined the upregulation of the mRNA of NAD(P)H quinone dehydrogenase (NQO1) by qPCR. The expression of NQO1 is Nrf2-dependent and it is one of the two major quinone reductases, which play a crucial role in protecting cells from oxidative stress.[40] ^§§ In the context of this study we chose BEAS-2B cells as a representative model for epithelial cells. The presence of serum has been reported to affect BEAS-2B cell phenotype. Specifically, exposure of BEAS-2B to FBS has been associated with squamous differentiation, alteration in cytokine secretion and response to toxicants.[42–44] […] The lack of activity of the peptides is unsurprising considering the overall negative net charge, which will obstruct their cellular uptake. In order to improve the cellular uptake, we took of advantage of the 2C-PS moiety, which not only allows the easy synthesis of a variety of macrocycles of different ring sizes, but also permits the facile introduction of a diverse set of moieties, which could enhance cell permeability. We pursued a diverse set of strategies to make the Keap1 peptide more cell permeable, namely: masking of the acidic amino acids with methyl esters, introduction of polyarginine peptides, GWWG-polyarginine peptides or a long-chain fatty acid tag onto the staple, as well as peptide shortening and a combination of these. The rationale behind these strategies is explained herein, and details of their synthesis can be found in the ESI. ^†
Cellular Biology Experimental
(Thermo Fisher Scientific, USA).
calculated using QunatStudio 7 software.

With CCCCCCCCCCCCCCCCCC(=O)NCCCC[C@H](NC(=O)COCCOCCn1cc(COCCOCCNc2nc3cc(n2)CCSC[C@@H](C(=O)N[C@@H](CC(C)C)C(N)=O)NC(=O)[C@H](CCC(=O)O)NC(=O)CNC(=O)[C@H]([C@@H](C)O)NC(=O)[C@H](CCC(=O)O)NC(=O)[C@@H]2CCCN2C(=O)[C@H](CC(=O)O)NC(=O)[C@@H](NC(C)=O)CSCC3)nn1)C(=O)NCCOCCOCC(=O)NCCOCCOCC(N)=O [Peptide P8-H] the koff [1] was 0.005 s⁻¹, the kon [1] was 160000 M⁻¹ s⁻¹ and the Kd ([1]; geometric mean ± sd of at least two independent repeats) was 32 ± 1.9 nM. The IC50 [2] was 7 nM and 7.4 nM and the EC50 [3] was 740 ± 1100 nM.

Several values for one entry are separate records, joined by “and”; a condition that tells them apart may be missing. Identical values can stand only once.
